Article PMC10099707 (Neuropathology and Applied Neurobiology, 2022)

Biological target: T1, HDAC4 (mouse (endogenous in hippocampal tissue), UniProt Q6NZM9 1-1076)
T1 sequence (looked up): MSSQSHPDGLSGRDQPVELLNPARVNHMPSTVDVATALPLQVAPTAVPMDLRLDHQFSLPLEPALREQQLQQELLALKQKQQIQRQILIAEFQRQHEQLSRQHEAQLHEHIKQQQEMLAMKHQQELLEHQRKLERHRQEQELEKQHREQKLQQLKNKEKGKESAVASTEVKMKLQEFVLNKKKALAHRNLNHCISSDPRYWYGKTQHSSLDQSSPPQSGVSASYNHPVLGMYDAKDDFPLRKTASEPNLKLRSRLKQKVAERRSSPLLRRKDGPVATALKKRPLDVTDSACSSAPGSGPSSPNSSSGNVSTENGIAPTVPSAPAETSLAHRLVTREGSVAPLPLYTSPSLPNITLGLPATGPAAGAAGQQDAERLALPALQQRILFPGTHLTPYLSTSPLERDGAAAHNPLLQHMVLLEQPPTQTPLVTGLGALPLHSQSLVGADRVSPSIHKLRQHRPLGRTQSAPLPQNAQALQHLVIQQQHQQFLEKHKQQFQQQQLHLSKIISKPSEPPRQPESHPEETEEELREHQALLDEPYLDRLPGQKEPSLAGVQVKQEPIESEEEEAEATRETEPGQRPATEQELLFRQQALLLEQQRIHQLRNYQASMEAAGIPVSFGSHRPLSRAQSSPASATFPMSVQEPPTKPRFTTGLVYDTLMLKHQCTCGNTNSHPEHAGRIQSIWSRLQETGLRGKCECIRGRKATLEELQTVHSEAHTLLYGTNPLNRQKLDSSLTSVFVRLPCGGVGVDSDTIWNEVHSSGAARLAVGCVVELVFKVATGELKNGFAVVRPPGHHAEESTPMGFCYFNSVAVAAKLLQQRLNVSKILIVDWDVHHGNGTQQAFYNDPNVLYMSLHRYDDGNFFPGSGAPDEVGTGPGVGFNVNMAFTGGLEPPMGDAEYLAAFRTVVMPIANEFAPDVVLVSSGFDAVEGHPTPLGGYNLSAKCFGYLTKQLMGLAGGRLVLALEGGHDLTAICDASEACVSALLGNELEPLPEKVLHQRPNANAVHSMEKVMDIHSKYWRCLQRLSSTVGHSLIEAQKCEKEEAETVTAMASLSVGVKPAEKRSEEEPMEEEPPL
Assay: co-IP

B1: GluA1 subunit of AMPA receptor (AMPAR) (receptor, mouse (endogenous in hippocampal tissue), UniProt P23818 19-907, looked up)
chain: ANFPNNIQIGGLFPNQQSQEHAAFRFALSQLTEPPKLLPQIDIVNISDSFEMTYRFCSQFSKGVYAIFGFYERRTVNMLTSFCGALHVCFITPSFPVDTSNQFVLQLRPELQEALISIIDHYKWQTFVYIYDADRGLSVLQRVLDTAAEKNWQVTAVNILTTTEEGYRMLFQDLEKKKERLVVVDCESERLNAILGQIVKLEKNGIGYHYILANLGFMDIDLNKFKESGANVTGFQLVNYTDTIPARIMQQWRTSDARDHTRVDWKRPKYTSALTYDGVKVMAEAFQSLRRQRIDISRRGNAGDCLANPAVPWGQGIDIQRALQQVRFEGLTGNVQFNEKGRRTNYTLHVIEMKHDGIRKIGYWNEDDKFVPAATDAQAGGDNSSVQNRTYIVTTILEDPYVMLKKNANQFEGNDRYEGYCVELAAEIAKHVGYSYRLEIVSDGKYGARDPDTKAWNGMVGELVYGRADVAVAPLTITLVREEVIDFSKPFMSLGISIMIKKPQKSKPGVFSFLDPLAYEIWMCIVFAYIGVSVVLFLVSRFSPYEWHSEEFEEGRDQTTSDQSNEFGIFNSLWFSLGAFMQQGCDISPRSLSGRIVGGVWWFFTLIIISSYTANLAAFLTVERMVSPIESAEDLAKQTEIAYGTLEAGSTKEFFRRSKIAVFEKMWTYMKSAEPSVFVRTTEEGMIRVRKSKGKYAYLLESTMNEYIEQRKPCDTMKVGGNLDSKGYGIATPKGSALRGPVNLAVLKLSEQGVLDKLKSKWWYDKGECGSKDSGSKDKTSALSLSNVAGVFYILIGGLGLAMLVALIEFCYKSRSESKRMKGFCLIPQQSINEAIRTSTLPRNSGAGASGGSGSGENGRVVSQDFPKSMQSIPCMSHSSGMPLGATGL
- fold change AD vs WT of the co-IP band ratio GluA1/HDAC4: 0.73 fold (AD vs WT)
